Drawing on ChEMBL document CHEMBL2169798, “Discovery of a Plasmodium falciparum glucose-6-phosphate dehydrogenase 6-phosphogluconolactonase inhibitor (R,Z)-N-((1-ethylpyrrolidin-2-yl)methyl)-2-(2-fluorobenzylidene)-3-oxo-3,4-dihydro-2H-benzo[b][1,4]thiazine-6-carboxamide (ML276) that reduces parasite growth in vitro” (J Med Chem, 2012), this text covers IC50 for one molecule.

Experiment [1] deals with T1, Glucose-6-phosphate 1-dehydrogenase (Plasmodium falciparum, UniProt Q25856).
T1 sequence (Q25856 whole entry): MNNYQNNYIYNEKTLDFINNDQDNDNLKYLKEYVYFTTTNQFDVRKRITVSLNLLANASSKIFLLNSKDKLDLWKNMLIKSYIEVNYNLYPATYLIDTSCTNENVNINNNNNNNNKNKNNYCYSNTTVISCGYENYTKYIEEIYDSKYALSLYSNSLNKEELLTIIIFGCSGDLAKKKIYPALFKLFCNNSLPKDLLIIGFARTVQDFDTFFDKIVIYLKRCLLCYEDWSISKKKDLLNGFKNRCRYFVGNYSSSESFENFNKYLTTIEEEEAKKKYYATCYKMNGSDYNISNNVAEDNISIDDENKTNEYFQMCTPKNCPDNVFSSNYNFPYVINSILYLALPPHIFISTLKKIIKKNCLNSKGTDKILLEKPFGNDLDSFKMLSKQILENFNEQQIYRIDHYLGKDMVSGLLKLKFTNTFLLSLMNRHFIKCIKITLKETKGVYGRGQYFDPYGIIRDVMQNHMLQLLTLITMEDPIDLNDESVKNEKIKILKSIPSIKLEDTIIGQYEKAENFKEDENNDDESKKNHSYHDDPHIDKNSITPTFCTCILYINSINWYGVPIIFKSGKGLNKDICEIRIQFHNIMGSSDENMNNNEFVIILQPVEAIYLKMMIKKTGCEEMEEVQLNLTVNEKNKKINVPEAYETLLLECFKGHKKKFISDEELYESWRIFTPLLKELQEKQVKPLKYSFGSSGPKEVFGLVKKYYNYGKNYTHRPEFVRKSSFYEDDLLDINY
As to the kind of experiment: Inhibition of Plasmodium falciparum glucose-6-phosphate dehydrogenase after 2 hrs by resazurin/diaphorasecoupled assay. In general terms: Alamar Blue is a resazurin reagent that responds to reducing activity.

For experiment [2], the target named is T1, Glucose-6-phosphate 1-dehydrogenase. As to the kind of experiment: Inhibition of Plasmodium falciparum glucose-6-phosphate dehydrogenase after 45 mins by orthogonal assay. An outline of the steps:
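Direct NADPH read without coupling: PfGluPho (0.4 μg/mL enzyme solution) in 50 mM Tris pH 7.5, 0.005% Tween 20, 1 mg/mL BSA; substrate 40 μM G6P, 6 μM NADP+, 6.6 mM MgCl2.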

`O=C1Nc2cc(C(=O)NCCCN3CCCC3)ccc2S/C1=C\c1cccc(Cl)c1`: the IC50 in experiment [1] is 17.9 µM; in experiment [2] it was 34.2 µM.

The IC50 is the concentration that inhibits the measured activity by half. Read a high IC50 as lower potency.
